Each structure is given as a SMILES string. Only a part is listed here, and it is no random draw. Activity calls are given as the source filed them. Rule for the calls: active = hit-call score of the fitted dose curve at least 0.9, where 1 is the maximum; inactive = score below 0.9.

The experiment in a line: CCTE_Mundy_HCI_iCellGABA_NOG_NeuronCount: CCTE's Neurite Outgrowth Assay in iCellGABA cells for Neuron Count, Mundy Lab. The method, then: CCTE_Mundy_HCI_iCellGABA_NOG is a multiplexed, cell-based-readout assay that uses iCell GABANeurons from FUJIFILM Cellular Dynamics, Inc. (FCDI), human GABAergic enriched neurons derived from induced pluripotent stem (iPS) cells, with measurements taken at 50.33 hours after chemical dosing in a microplate: 96-well plate.CCTE_Mundy_HCI_iCellGABA_NOG_NeuronCount is one of four components of the CCTE_Mundy_HCI_iCellGABA_NOG assay. It measures cell viability related to number of neurons using High Content Imaging of fluorescently labelled markers.Data from the assay component CCTE_Mundy_HCI_iCellGABA_NOG_NeuronCount was analyzed at the endpoint CCTE_Mundy_HCI_iCellGABA_NOG_NeuronCount in the positive analysis fitting direction relative to DMSO as the negative control and baseline of activity. Using a type of viability reporter, loss-of-signal activity can be used to understand developmental effects.
Exposure starts 2 hours post-plating by adding 10 ul of the working solution to 90 ul of media in the wells for a 1/10 dilution. […] A Cellomics ArrayScan VTi HCS Reader is used for automated image acquisition and analysis of neurite outgrowth.
On to `CC(C)OP(=S)(OC(C)C)SCCNS(=O)(=O)c1ccccc1`, for which the AC50 is active: 12.9 µM.

The record behind these values is PubChem BioAssay AID2284365 (EPA ToxCast).
